Data reported in PubChem BioAssay AID552 (SRMLSC, 2006).
Only a part is listed here, and it is no random draw. Some of these compounds have results that are not shown, active ones among them. Calls of active or inactive are those of the source. No stated cut-off is given here; in the data, active means inhibition above about 40%; inactive means the rest.

Assay: growth inhibitors of wild type E. coli, primary screen, strain BW25113 wild type, absorbance readout (AID 552);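 further: bacteria exposed to compound for 20 hours at 37 °C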
Details: OD600, at 10 µM, hits give high values
Summary of the method: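 Material: bacterial strain in a whole-cell growth screen; Amount: inoculum from a 1:1000 dilution of a 1.5 h subculture; Buffer or medium: LB plus kanamycin 50 µg/mL; Dosing: one dose, 10 µM final; Times: compound exposure of 20 h at 37 °C; Measured by: absorbance at 615 nm as a measure of bacterial growth.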

Structure (SMILES)	inhibition
O=C(OC1CN2CCC1CC2)C(CO)(c1ccccc1)c1ccccc1 (stereo unspecified)	inactive: -3.4%
